Values of other authors in US20240150372A1 (priority 2021, published 2024).

Test system: human cardiomyocytes
Conditions: Rubi, L. et al 2017; cited from earlier work

ibogaine
action potential repolarization: significantly delayed action potential repolarization
